Test results from paper PMC3582496 (PLoS Biology, 2013).

Key:
GST-CNA1 and CNB1 = format: binding, yeast; details: 350 ng S-A238L157–239, GST-CNA1/CNB1, excess peptide
CN = format: binding

Sequence | disruption of A238L-CN binding by competing peptide (GST-CNA1 and CNB1; listed as peptide that encodes the LxVP docking motif from NFATc1) | disruption of A238L-CN binding by competing peptide (GST-CNA1 and CNB1; listed as peptides encoding the LxVP site from NFATc1) | disruption of GST-fusion/CN interaction by competing peptide (CN) | disruption of A238L-CN binding by competing peptide (GST-CNA1 and CNB1)
DQYLAVPQHPYQWAK [LxVPc1] | disrupted A238L-CN binding | interferes with A238L-CNA binding | disrupted by the addition of a peptide encoding the LxVP motif from NFATc1; also recorded: this interaction is disrupted by incubation with excess peptide LxVPc1 | 
GPHPVIVITGPHEE |  |  |  | interferes with A238L-CNA binding

“Also recorded” adds a separate entry of the source. Where two headings read alike, the source gives them in different places.
